Key:
[1] = for Solubility in Glacial acetic acid: solvent glacial acetic acid; for Solubility in o-Dichlorobenzene: solvent o-dichlorobenzene; for Solubility in Toluene: solvent toluene; for Solubility in Water: solvent water
[2] = prior art RU 2124022; cited from earlier work
hepatitis C virus = test: Viability of hepatitis C virus-infected SPEV cell cultures; assay type: cell-based, hepatitis C virus genotype 1b; settings: 100 μg/ml, 7th day after the infection
Procedure: In our work we used cytopathogenic strain of hepatitis C virus belonging to geno-type 1b. The strain was isolated from the blood serum of a patient suffering from chronic viral hepatitis C, identified as hepatic C virus. Infective doses of HSV equal to 10 TCD of 50/20 μl were used in the investigation.
Cultures of reinoculated porcine embryo kidney cells (SPEV), highly sensitive to the pathogenic action of HSV, obtained from “Narva” Company (Russia) were employed. These cultures were used in the form of a one day monolayer of cells, grown in 24-cell plastic plates. The cultures of SPEV cells were grown on medium 199 with 10% of fetal calf serum with addition of glutamine and antibiotics (100 U/ml).
Different dilutions of the preparation—sodium salt of fullerene-polyamino-caproic acid—from 100 μg/ml and lower on the medium 199 were used in the experiment. For studying the antiviral activity of the preparation, the preparation was introduced in various concentrations into the SPEV cell cultures at the moment of infection and in 24 hours after the infection with hepatitis C virus on the cell in 24-cell plastic culture plates.
The viability of the SPEV cell cultures infected and non-infected with HSV was studied on the 7th day after the infection.

## Fullerene-polyamino-caproic acid
[1]
  Solubility in Glacial acetic acid: Yes
  Solubility in o-Dichlorobenzene: No
  Solubility in Toluene: No
  Solubility in Water: No

## N-(monohydro)-fullerene-amino-caproic acid HC60NH(CH2)5COOH
[2]
  Solubility in dimethylsulfoxide, dimethylformamide, and pyridine: soluble

## sodium salt of fullerene-polyamino-caproic acid
[1]
  Solubility in Glacial acetic acid: Yes
  Solubility in o-Dichlorobenzene: No
  Solubility in Toluene: No
  Solubility in Water: Yes
Hepatitis C virus
  Viability of HCV-infected cells: 100%

Source: US20060122276A1, “Agent for inhibiting membrane virus reproduction, method for the production thereof, pharmaceutical composition and method for inhibiting viral infections” (priority 2003, published 2006)
